Measured values published in patent EP0973746B1, “SUBSTITUTED 3-CYANO QUINOLINES” (Wyeth Holdings Corporation, priority 1997, dated 1998).

Amino acid sequences for entries named in this document (tags omitted). Residues count along the entry.
UniProt P00533, 25-1210: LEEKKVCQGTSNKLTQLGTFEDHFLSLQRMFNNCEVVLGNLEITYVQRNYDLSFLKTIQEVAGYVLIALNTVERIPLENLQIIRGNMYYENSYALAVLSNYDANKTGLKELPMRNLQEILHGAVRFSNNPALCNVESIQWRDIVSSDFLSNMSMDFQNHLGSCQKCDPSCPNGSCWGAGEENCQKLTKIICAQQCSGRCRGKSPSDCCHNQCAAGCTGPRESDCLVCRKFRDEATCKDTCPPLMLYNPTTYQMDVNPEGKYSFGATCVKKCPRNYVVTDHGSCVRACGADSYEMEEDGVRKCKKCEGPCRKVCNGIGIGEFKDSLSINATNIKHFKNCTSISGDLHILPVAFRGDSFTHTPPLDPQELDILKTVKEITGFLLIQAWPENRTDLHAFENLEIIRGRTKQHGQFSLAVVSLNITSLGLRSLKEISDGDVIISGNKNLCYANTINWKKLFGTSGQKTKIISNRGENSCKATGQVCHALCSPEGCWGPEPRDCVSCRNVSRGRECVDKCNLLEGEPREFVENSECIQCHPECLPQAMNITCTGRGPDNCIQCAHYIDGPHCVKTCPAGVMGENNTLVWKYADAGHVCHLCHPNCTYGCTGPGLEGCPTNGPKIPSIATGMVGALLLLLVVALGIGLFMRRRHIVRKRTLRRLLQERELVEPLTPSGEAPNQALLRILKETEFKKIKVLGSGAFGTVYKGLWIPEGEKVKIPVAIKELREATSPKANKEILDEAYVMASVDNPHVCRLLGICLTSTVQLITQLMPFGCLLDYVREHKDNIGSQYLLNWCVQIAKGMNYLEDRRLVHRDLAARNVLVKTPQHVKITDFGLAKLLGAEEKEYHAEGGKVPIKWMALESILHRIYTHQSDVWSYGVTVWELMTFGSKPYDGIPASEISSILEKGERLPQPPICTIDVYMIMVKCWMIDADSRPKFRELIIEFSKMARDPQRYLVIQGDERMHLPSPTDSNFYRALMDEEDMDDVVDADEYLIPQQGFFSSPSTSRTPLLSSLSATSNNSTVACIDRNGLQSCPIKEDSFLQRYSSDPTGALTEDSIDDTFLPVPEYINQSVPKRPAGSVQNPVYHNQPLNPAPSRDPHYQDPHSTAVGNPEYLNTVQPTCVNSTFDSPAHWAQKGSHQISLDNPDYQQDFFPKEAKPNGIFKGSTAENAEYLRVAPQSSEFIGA

Experiments:
[1] = target: epidermal growth factor receptor kinase (Homo sapiens, UniProt P00533); test: biochemical
[2] = target: recombinant human MEK 1 (MAPKK) and recombinant human ERK2 (MAPK); test: Mitogen Activated Protein Kinase (MAPK) assay, two component coupled MEK 1 / ERK2; format: biochemical; conditions: separate entries for the same compound = evaluated more than one time;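 note: MEK 1-activated ERK2 phosphorylates MBP or Myc peptide with 33P-ATP, filter capture and scintillation counting, inhibitor preincubated with ERK2 30 min at 0 °C, inhibition relative to uninhibited control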

How did the IC50 [1] turn out when `COc1cc2ncc(C#N)c(Nc3cccc(C(F)(F)F)c3)c2cc1OC` [Example 42, 4-[(3-Trifluoromethylphenyl)amino]-6,7-dimethoxy-3-quinolinecarbonitrile] was run?
The IC50 was 1.5 µM.

With `CN1CCN(CC#CC(=O)Nc2ccc3ncc(C#N)c(Nc4cccc(Br)c4)c3c2)CC1` [Example 190, N-[4-[(3-Bromophenyl)amino]-3-cyano-6-quinolinyl]-4-(N-methylpiperazino)-2-butynamide] as the molecule, how does the IC50 [2] read?
Its IC50 is 12 µM.
